Test results reported in ChEMBL document CHEMBL2034935, “Discovery of a Novel Series of CRTH2 (DP2) Receptor Antagonists Devoid of Carboxylic Acids” (ACS Med Chem Lett, 2011).

Columns and labels:
[1] = molecular target: T1, Prostaglandin D2 receptor 2 (Homo sapiens, UniProt Q9Y5Y4); experiment: Displacement of [3HPGD2 from human CRTH2 receptor expressed in CHO cell membrane after 90 mins by scintillation proximity assay; type: cell membranes
T1 sequence (Q9Y5Y4 whole entry): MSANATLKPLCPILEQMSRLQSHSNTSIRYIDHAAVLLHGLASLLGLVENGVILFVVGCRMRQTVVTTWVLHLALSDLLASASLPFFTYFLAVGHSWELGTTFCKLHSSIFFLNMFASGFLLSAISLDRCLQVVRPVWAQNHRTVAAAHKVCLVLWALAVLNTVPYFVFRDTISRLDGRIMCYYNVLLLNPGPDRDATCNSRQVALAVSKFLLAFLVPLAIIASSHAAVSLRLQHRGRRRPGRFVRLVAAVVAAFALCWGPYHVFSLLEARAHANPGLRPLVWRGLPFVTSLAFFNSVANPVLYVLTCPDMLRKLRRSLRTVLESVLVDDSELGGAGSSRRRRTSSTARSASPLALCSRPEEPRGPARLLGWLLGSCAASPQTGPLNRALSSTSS

[2] = molecular target: T1, Prostaglandin D2 receptor 2; experiment: Antagonist activity at human CRTH2 receptor expressed in CHO cell membrane assessed as inhibition of PGD2-induced [35S]GTPgammaS binding after 30 mins by microbeta scintillation counting; type: functional, cell membranes

Ki [1]: 26 nM
IC50 [2]: 85 nM
SMILES: CCC(=O)N(Cc1cccc(O)c1)c1cc(F)cc(-c2nnn[nH]2)c1
